# Antibody variant affinities, Ab-14 light chain, assay 1

The target is the same throughout: PDVDLGDISGINAS, from the HR2 region of SARS-CoV-2 spike.

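Phage display of a naive human antibody library on the peptide gave the parent. AAYL50 was designed without a model: most single CDR substitutions and a random sample of double and triple ones. The assay is AlphaSeq: two haploid yeast populations carry antibody and antigen on their surface. The frequency of each diploid, read from paired DNA barcodes, reflects how well the two displayed proteins bind. Each replicate has its own calibration line, from reference interactions of the BCL2 family. Mating was done three times.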

The variants keep the heavy chain, the linker and the frameworks of Ab-14 (scFv order VH, three GGGGS repeats, VL).
VH: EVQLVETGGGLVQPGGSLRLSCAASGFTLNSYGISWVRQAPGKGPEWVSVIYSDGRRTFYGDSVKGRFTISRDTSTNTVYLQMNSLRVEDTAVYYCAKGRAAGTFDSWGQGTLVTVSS
VL: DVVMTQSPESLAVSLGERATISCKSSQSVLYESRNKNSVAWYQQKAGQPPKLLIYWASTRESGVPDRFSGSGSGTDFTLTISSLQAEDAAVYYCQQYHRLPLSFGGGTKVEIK

Each variant is given by its three light chain CDRs, as the data file delimits them; those of the parent are KSSQSVLYESRNKNSVA, WASTRES, QQYHRLPLS.
The read-out is the apparent dissociation constant on a log10 scale (nM): the lower, the stronger.
"ND" means that the variant was in the library but no mating with the target was seen in that replicate; the authors take this as a sign of poor binding, and no number exists.
Nonspecific signal, from three strains lacking the peptide, appeared in 18% of pairings of library AAYL50, centred on 4.19 (5% of these signals below 2.99); values are not corrected for it. Also given: how often the same scFv was detected with the empty control strains, with their mean in brackets.
For reference, the parent read 0.65 as the reference entry and 1.68 as a member of this library.

| CDR-L1 | CDR-L2 | CDR-L3 | log10 Kd (nM) by replicate | empty controls |
|---|---|---|---|---|
| KSSQSVLYESRNKNSVA | SASTRES | QQNHRLPYS | 4.67 2.80 ND | 3/9 (3.74) |
| KSEQSVLYESRNKNSVA | WASSRES | QHYHRLPLS | ND ND 5.68 | 1/9 (3.03) |
| KSSQSVLYESRNKNSVA | WATTRMS | QCYHRLPLS | 1.04 1.26 1.41 | 2/9 (3.65) |
| KSSQSRLYEVRNKNSVA | AASTRES | QQYHRLPLS | ND ND ND | 3/9 (4.31) |
| KFSQSVLYESRTKNSVA | NASTRES | QQYHRLPLS | -0.75 -0.41 -0.73 | 6/9 (4.54) |
| KSSQSVLYESRVGNSVA | WASTREL | QQYHRLPLS | 0.71 0.90 0.95 | 2/9 (5.09) |
| WSSQSVVYESRNKNDVA | WASTRES | QQYHRLPLS | ND ND ND | 1/9 (4.26) |
| KSSQSVLYESRNKNSAA | KADTRES | QQYHRLPLS | 4.78 3.23 3.63 | 1/9 (2.73) |
| KSSNSVLYEDRNKNSVA | WASTRES | QQYHRLPLS | ND ND ND | 0/9 |
| NSGQSLLYESRNKNSVA | WASTRES | QQYHRLPLS | 0.88 1.00 1.02 | 6/9 (4.54) |
| KSSQSVLYESRNKVSVM | WASTNES | QQYHRLPLS | ND 4.63 5.32 | 2/9 (4.11) |
| KSFQSVLYESRNHNSVA | WAHTRES | QQYHRLPLS | 2.16 2.37 ND | 1/9 (4.60) |
| KSSQSVLYESTNKNSWA | WESTRES | QQYHRLPLS | 4.07 ND ND | 0/9 |
| KSSHSVLYESRNTNDVA | WASTRES | QQYHRLPLS | 1.05 1.37 1.26 | 1/9 (3.65) |
| KSSQSVLGESRNKNSVA | WRSTRES | QQYHRIPLS | 2.55 2.73 3.20 | 1/9 (2.70) |
| KSSQSVCYESRNKNSVA | WASTRES | QWYHRLPLS | 2.34 2.25 2.59 | 6/9 (4.22) |
| KSSQSVLYESRNHNSVA | WPSTRES | QQYHRLFLS | ND ND ND | 1/9 (4.41) |
| KSSQSVLYFHRNKNSVA | WASTRES | QQYHRLPLS | ND ND ND | 0/9 |
| KSSQSVLYESRNQNSVA | RASTREK | QQYHRLPLS | 0.81 1.12 1.09 | 0/9 |
| KSSQSVLYESRYKNSVA | WASTRES | QQYHRLPIS | 1.09 1.21 1.42 | 2/9 (4.09) |
| KSSQSVLRESRRKNSVA | WASSRES | QQYHRLPLS | 4.27 ND ND | 1/9 (3.09) |
| KSSQSVLYESRNKHSVA | HASTRES | WQYHRLPLS | 5.89 4.46 ND | 4/9 (5.23) |
| KSSQSVLYEHRVKNSVA | WASTQES | QQYHRLPLS | ND ND ND | 4/9 (4.12) |
| KPSQSVLYESRNKNSVA | WASLRES | QQYHRLMLS | 2.57 4.94 ND | 4/9 (3.99) |
| KSSQSMLYESRNKLSVA | WASTRES | QPYHRLPLS | 5.59 ND 4.43 | 3/9 (4.56) |
| KSSQSVEYESRNKNSVA | WADTWES | QQYHRLPLS | 3.78 ND ND | 0/9 |
| KSDQSVLYNSRNWNSVA | WASTRES | QQYHRLPLS | 0.75 1.00 0.84 | 5/9 (4.26) |
| KSSQSVLYESRNKNSHA | WASTREW | QQYHRLPLS | ND ND ND | 0/9 |
| KSSISVLYASRNKNSVA | WASTRES | QQYHRLPLK | 2.56 ND ND | 0/9 |
| KSSQSVLYASHNKNSVA | WAWTRES | QQYHRLPLS | 2.20 2.13 1.98 | 1/9 (4.80) |
| KSSQSILYESRNKNSVA | WASTRES | QDYHHLPLS | 2.12 1.90 2.25 | 6/9 (4.86) |
| KSSQSVLYESREKNSVA | WTSTRES | QQMHRLPLS | 2.66 2.48 3.71 | 2/9 (3.63) |
| KSSQSVAYESRNKNSVA | WASTREA | QQYHRLPLS | 0.51 0.72 0.55 | 3/9 (4.49) |
| WSSQSVLYESRNKNSVA | WAETRES | QQYHLLPLS | ND ND ND | 0/9 |
| KSSQSVLYESRNGNSVA | MASTRES | YQYHRLPLS | ND ND ND | 1/9 (3.38) |
| KSSQSELYNSRNKNSVA | WASTRES | QQYHRLPLG | 1.12 1.15 1.21 | 7/9 (5.36) |
| KSSQSVLYESRNKNSDA | WASTRES | QQYLRLPLS | ND 2.08 ND | 0/9 |
| KSSQSVLSESRNKNSVA | WASTLES | QQYHRLFLS | 0.63 0.98 0.84 | 1/9 (3.55) |
| KSSFSVLYESRNKNSVA | WYSTMES | QQYHRLPLS | 3.28 2.62 3.93 | 3/9 (3.78) |

For reference, 3 entries of the list once more:

| CDR-L1 | CDR-L2 | CDR-L3 | log10 Kd (nM) by replicate | empty controls |
|---|---|---|---|---|
| KSEQSVLYESRNKNSVA | WASSRES | QHYHRLPLS | ND ND 5.68 | 1/9 (3.03) |
| KSSQSVLYASHNKNSVA | WAWTRES | QQYHRLPLS | 2.20 2.13 1.98 | 1/9 (4.80) |
| KSSQSMLYESRNKLSVA | WASTRES | QPYHRLPLS | 5.59 ND 4.43 | 3/9 (4.56) |

Data: MIT Lincoln Laboratory AlphaSeq set, Engelhart et al. 2022, doi:10.1038/s41597-022-01779-4, as distributed in FLAb.